Experimental data taken from BindingDB's records for doi:10.1016/j.chembiol.2011.01.012 (University of Luxembourg, 2011).

Amino acid sequences for entries named in this document (tags omitted). A change or cut given only in a name is not applied to a line headed by its entry.
UniProt P23458: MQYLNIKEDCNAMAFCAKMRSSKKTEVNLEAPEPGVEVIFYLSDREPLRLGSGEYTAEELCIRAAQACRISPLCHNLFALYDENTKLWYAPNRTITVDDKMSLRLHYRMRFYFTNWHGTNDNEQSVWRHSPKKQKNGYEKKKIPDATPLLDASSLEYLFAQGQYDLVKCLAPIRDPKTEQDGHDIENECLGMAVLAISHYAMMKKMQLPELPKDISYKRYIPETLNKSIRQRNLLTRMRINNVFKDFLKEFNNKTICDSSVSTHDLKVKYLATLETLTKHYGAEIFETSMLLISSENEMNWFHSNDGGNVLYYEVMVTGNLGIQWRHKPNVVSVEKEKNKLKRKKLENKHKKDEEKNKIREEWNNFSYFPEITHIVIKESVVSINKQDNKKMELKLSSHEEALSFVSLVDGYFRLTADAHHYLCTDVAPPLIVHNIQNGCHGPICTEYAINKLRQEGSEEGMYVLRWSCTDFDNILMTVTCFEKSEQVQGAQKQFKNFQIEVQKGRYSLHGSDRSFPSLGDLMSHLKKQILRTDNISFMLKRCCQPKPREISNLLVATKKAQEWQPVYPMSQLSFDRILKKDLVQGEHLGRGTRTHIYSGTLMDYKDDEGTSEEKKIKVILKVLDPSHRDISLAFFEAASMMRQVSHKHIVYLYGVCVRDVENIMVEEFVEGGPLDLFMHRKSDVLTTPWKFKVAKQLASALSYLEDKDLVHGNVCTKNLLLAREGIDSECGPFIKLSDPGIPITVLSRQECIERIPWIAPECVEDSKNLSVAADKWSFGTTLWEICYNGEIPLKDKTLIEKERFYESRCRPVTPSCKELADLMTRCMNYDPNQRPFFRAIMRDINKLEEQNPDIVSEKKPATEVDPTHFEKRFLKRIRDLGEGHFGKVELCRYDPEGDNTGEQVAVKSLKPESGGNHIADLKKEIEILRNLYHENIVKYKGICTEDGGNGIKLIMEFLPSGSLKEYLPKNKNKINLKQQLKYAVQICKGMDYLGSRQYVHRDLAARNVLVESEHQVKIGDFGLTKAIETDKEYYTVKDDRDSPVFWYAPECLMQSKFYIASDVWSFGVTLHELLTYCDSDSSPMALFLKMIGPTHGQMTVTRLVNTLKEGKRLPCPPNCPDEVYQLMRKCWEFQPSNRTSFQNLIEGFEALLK

Target: Tyrosine-protein kinase JAK1 (Homo sapiens, UniProt P23458)
Assay: Enzyme Assay
Settings: pH 7.5; 30 °C

IC50: 5.2 nM
Structure (SMILES): CC(C)(C)c1nc2c3ccc(F)cc3c3c(=O)[nH]ccc3c2[nH]1 [Jak Inhibitor 1]
